Earlier results in PMC4145829 (Drug Design, Development and Therapy, 2014).

Tested on: VEGFR
Details: read-out: VEGFR inhibition IC50; biochemical assays; cited from earlier work

Compound: CNC(=O)c1cc(Oc2ccc(NC(=O)Nc3ccc(Cl)c(C(F)(F)F)c3)cc2)ccn1 [Sorafenib]
- IC50: 26 to 100 nM
